Assay results reported in patent US9102591B2, “Benzamides” (H. Lundbeck A/S, priority 2012, dated 2015).

Amino acid sequences for entries named in this document (tags omitted). A change or cut given only in a name is not applied to a line headed by its entry.
UniProt Q99572: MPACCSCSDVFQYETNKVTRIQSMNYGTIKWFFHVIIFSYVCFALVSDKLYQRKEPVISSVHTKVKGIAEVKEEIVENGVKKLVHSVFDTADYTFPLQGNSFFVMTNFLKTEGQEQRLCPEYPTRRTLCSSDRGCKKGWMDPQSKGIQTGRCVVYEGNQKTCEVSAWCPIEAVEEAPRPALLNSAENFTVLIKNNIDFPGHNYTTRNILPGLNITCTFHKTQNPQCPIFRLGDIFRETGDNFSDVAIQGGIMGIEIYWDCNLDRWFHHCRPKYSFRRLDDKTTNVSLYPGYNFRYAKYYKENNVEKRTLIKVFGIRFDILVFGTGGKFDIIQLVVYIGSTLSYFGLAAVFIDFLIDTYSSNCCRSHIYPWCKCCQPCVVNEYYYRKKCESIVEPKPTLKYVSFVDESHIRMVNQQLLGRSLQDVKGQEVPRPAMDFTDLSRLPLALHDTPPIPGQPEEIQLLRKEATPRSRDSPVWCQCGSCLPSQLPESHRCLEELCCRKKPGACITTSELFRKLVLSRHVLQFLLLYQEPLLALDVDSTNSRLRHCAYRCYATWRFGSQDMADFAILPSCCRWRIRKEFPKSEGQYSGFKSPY

Biological target: P2X7 receptor (Homo sapiens (Human), UniProt Q99572)
Assay: P2X7 FLIPR assay (BzATP-stimulated calcium fluorescence, antagonist IC50)
Format: cell-based
Protocol: This example illustrates representative assays for use in evaluating the test compounds for antagonist activity. Compounds of the present invention were tested in vitro for their ability to act as antagonists to the P2X7receptor. […]
Cells were plated to cell density of approximately 15,000 cells/well in 384-well assay plates (50 μl/well) with 1.5% low serum media (DMEM, 1.5% FBS, 1% L-glut (2 mM), 10 mM HUES, 1% P/S). Cells were plated 24 hours prior to assay. Cells expressing human, rat or mouse P2X7 receptor were assayed in the following manner.
Fluo-4 NW dye mix (Molecular Probes, Inc., Eugene, Oreg., USA) was prepared in buffer (see manufacturer's instructions). Cell plates were removed from the 37° C. incubator, the media discarded and then 30 μL of dye was added to each well. Plates were placed in the 37° C., non-CO2 incubator for 30 minutes and then room temperature for 30 minutes.
Compound mixtures (A) were added to assay plates containing cells and placed at room temperature for 30 minutes, then BzATP (B) was added. Fluorescence was read using the Tetra FLIPR® (Molecular Devices, Inc., Sunnyvale, Calif., USA) and IC50 values were calculated by standard methods to determine antagonist activity.

IC50	SMILES
260 nM	Cc1ncc(C(CNC(=O)c2cccc(Cl)c2Cl)CC2CC2)cn1 (single isomer, unassigned; (+)) [Example 4y, (+)-2,3-dichloro-N-(3-cyclopropyl-2-(2-methylpyrimidin-5-yl)propyl)benzamide]
60 nM	Cc1ncc(C(CNC(=O)c2cccc(Cl)c2Cl)CC2CC2)cn1 (centres unmarked) [2,3-dichloro-N-[3-cyclopropyl-2-(2-methylpyrimidin-5-yl)propyl]benzamide]
